Structures can show the parent of a compound that is named as a salt.
Assay: Repeated oral administration test for 10 days using rats: blood hemoglobin (Hb)
Type: in vivo
Conditions: SD rats, 8 weeks of age; before administration (baseline)
Description: SD-Family rats (Crj:CD:IGS) of 8 weeks of age were divided into two groups; in one group, pioglitazone hydrochloride is orally administered at a dose of 240 mg/kg/day for 10 days forcibly through a gastric probe, and the in the other group, 240 mg/kg/day of pioglitazone hydrochloride and 100 mg/kg/day of benfotiamine were administered in the same manner. After termination of the administration, the blood was collected from the rats and the hemoglobin (Hb) value was determined. Then, the rats were killed, and their hearts were weighed (relative weight).

Blood Hb conc. before administration: 12.9 g/dL
Compound: CCc1ccc(CCOc2ccc(CC3SC(=O)NC3=O)cc2)nc1 (stereo not shown) [Pioglitazone HCl, pioglitazone hydrochloride]
